Measurements as given in patent US10196424B2, “Oral peptide inhibitors of interleukin-23 receptor and their use to treat inflammatory bowel diseases” (Protagonist Therapeutics, Inc., priority 2014, dated 2019).

Biological target: T1, human IL-23R (Homo sapiens, UniProt Q5VWK5)
T1 sequence (Q5VWK5 24-353): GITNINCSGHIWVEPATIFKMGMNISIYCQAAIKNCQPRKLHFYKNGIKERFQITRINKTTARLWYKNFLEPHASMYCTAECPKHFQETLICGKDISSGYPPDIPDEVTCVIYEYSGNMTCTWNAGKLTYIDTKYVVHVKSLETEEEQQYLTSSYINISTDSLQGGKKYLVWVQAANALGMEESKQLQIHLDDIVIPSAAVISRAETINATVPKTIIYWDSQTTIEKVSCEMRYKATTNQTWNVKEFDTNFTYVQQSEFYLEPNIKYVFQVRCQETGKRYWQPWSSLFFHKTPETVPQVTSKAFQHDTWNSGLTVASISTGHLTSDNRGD
Test: IL23-IL23R Competitive Binding ELISA (Human ELISA)
Details: Table 3H

With `CCCCCCCCCCCCCCCC(=O)NCCCC[C@H](NC(=O)[C@H](CCCN)NC(=O)[C@H](Cc1c[nH]c2ccccc12)NC(=O)[C@H](Cc1ccc(O)cc1)NC(=O)[C@@H]1CSSC[C@H](NC(C)=O)C(=O)N[C@@H](CCC(N)=O)C(=O)N[C@@H]([C@@H](C)O)C(=O)N[C@@H](Cc2c[nH]c3ccccc23)C(=O)N[C@@H](CCC(N)=O)C(=O)N1)C(=O)N[C@@H](CC(N)=O)C(=O)NCC(N)=O` [compound 501] the IC50 was > 6 µM.
`CCCCCCCCCCCCCCCC(=O)NCCCC[C@H](NC(=O)[C@H](CCC(=O)O)NC(=O)[C@H](CC(C)C)NC(=O)[C@H](Cc1c[nH]c2ccccc12)NC(=O)[C@H](Cc1ccc(O)cc1)NC(=O)[C@@H]1CSSC[C@H](NC(C)=O)C(=O)N[C@@H](CCC(N)=O)C(=O)N[C@@H]([C@@H](C)O)C(=O)N[C@@H](Cc2c[nH]c3ccccc23)C(=O)N[C@@H](CCC(N)=O)C(=O)N1)C(=O)NCC(N)=O` [compound 517] was tested, and the IC50 was > 6 µM.
